Laboratory results: article PMC8966664 (Frontiers in Pharmacology, 2022)

Tests used:
Format in all cases: in vivo, Sprague Dawley rats
RTS-induced liver injury = assay: Serum ALT, hepatic MDA and GSH in RTS-induced liver injury; conditions: rats
Text: (§1) Rats were randomly divided into the following twelve groups: 1 and 2) Single- or Multiple-dose of distilled water groups (Vehicle), 3 and 4) Single-dose of RTS groups (RTS), 5 and 6) Single- or Multiple-dose of EX groups (SD-EX and MD-EX), 7 and 8) Single- or Multiple-dose of GA groups (SD-GA and MD-GA), 9) Single-dose of EX + RTS group (RTS-SD-EX), 10) Multiple-dose of EX + RTS group (RTS-MD-EX), 11) Single-dose of GA + RTS group (RTS-SD-GA), and 12) Multiple-dose of GA + RTS group (RTS-MD-GA). EX and GA were dissolved in distilled water at 37°C for oral administration with the dosage of EX and GA as 500 mg/kg and 50 mg/kg. RTS was dissolved in distilled water at room temperature to make the final concentration of 40 mg/kg. RTS was given following the last dose of distilled water/GA/EX. Detailed dosage regimens are described in Supplementary Figure S2. All rats were sacrificed at 48 h after the last dosing. Serum and liver samples were collected and stored at −80°C until use. The dose of RTS chosen for this study was based on our previous findings in that 40 mg/kg of RTS caused significant acute liver injury with moderate to severe SECs damage in male SD rats ([Chen et al., 2021]).
The serum alanine transaminase (ALT) level was measured by a kit obtained from Sigma-Aldrich Chemical Co. (St. Louis, MO, United States). The total bilirubin level was measured by the QuantiChromTM Bilirubin Assay kit according to the manufacturer’s instructions (BioAssay Systems, Hayward, CA, United States). Hepatic malondialdehyde (MDA) level was measured using a kit obtained from Nanjing Jiancheng Bioengineering Institute (Nanjing, China). Total GSH content in the liver was measured following a standard spectrophotometric method using Ellaman’s reagent.

RTS-induced liver damage = assay: Histological examination (H&E) and scoring of liver damage, modified DeLeve's system; set-up: key to Sinusoidal hemorrhage / Coagulative necrosis / Apoptotic bodies / Subendothelial fibrosis / Sinusoid fibrosis: 0-absent; 1-mild; 2-moderate; 3-severe; conditions: rats
Text: as §1
The largest lobe of the liver was sliced, fixed in 10% buffered-neutral formalin for 24 h, and embedded in wax. Sections of 5 µm in thickness were subjected to hematoxylin and eosin staining before being examined. Liver injury (necrosis, endothelial cell damage, and hemorrhage) was evaluated with a LEICA DM5000B Microscope (Leica, Heidelberg, Germany).
Protective effects of EX and GA on RTS-induced hepatotoxicity were also evaluated by histopathological examination. […] The damage of sinusoidal endothelial cells was further measured by the immunofluorescence of RECA-1. […] The degrees of hemorrhage, sinusoidal dilation, and necrosis were assessed and scored (Table 2) according to a modified DeLeve’s system ([Deleve et al., 1999]) as summarized in Supplementary Table S3.

[1] = system: sinusoidal endothelial cells; assay: Immunofluorescence of RECA-1 in liver sections; conditions: rats; RTS alone
Text: as §1
The largest lobe of the rat liver was sliced, cold-embedded in Tissue-Tek OCT compound, and processed for immunohistochemistry according to the Abcam IHC frozen sections staining protocol. […]

[2] = Toxicokinetic study: plasma kinetics of RTS; conditions: rats; RTS 30 mg/kg oral alone (vehicle pre-dose)
Description: For the toxicokinetic study, jugular vein cannulation was performed on rats on the day before drug administration. The right jugular vein was cannulated with a polyethylene tube (0.4 mm i.d. × 0.8 mm o.d., SIMS Portex, United Kingdom) for blood sampling. The rats were maintained in individual metabolic cages and fasted overnight with free access to water. Rats were orally dosed with GA (50 mg/kg) or distilled water (<5 ml/kg) 2 hours prior to RTS (30 mg/kg). After RTS dosing, blood samples (about 0.2 ml/sample) were collected at 5, 10, 20, 40, 60, 120, 240, 360, 480, 720, and 1440 min and placed in heparinized tubes. Saline (0.2 ml) containing 25 units of heparin/mL was injected after each blood sampling for compensation of blood withdrawal. The blood samples were then centrifuged at 3,000 x g for 30 min, and plasma samples were harvested and stored at −20°C until use.
The pyrrole-protein adducts were measured according to our previously developed method ([Lin et al., 2011]; [Ruan et al., 2014]). Briefly, 50 mg liver or 100 µL serum/plasma was mixed with acetone and centrifuged at 900 x g for 10 min. The precipitated protein was treated with silver nitrate (20 mg/ml) in ethanol containing 5% trifluoroacetic acid to release pyrrole moiety from the pyrrole-protein adducts. After centrifugation, an aliquot of the supernatant was incubated with 4-dimethylaminobenzaldehyde (20 mg/ml) at 56°C for 10 min. The mixture was filtered and subjected to LC-MS/MS analysis. 7,9-diGS-DHP was used as a standard with a concentration ranging from 0.2 to 2000 nM and underwent the same preparation process to construct a calibration curve. To measure the concentration of RTS and 7,9-diGS-DHP, liver, serum, plasma samples, or the incubation mixture were mixed with five volumes of acetone (for liver samples) or three volumes of acetonitrile (for serum and plasma samples) to precipitate the proteins. After centrifuging at 20,000 x g for 30 min, the supernatants were collected and analyzed by LC-MS/MS according to our previously developed methods ([Ma et al., 2019]; [He et al., 2021a]; [Ma et al., 2021]).
The LC-MS/MS analysis was performed on an Agilent 6460 Triple Quadrupole LC/MS System using a Waters Acquity BEH C18 column (2.1 × 100 mm, […]). For the detection of pyrrole-protein adducts, the mobile phase of water containing 0.1% formic acid (A) and acetonitrile containing 0.1% formic acid (B) was used with a gradient elution as follows: 0–5 min, 35–95% B; 5.5–6 min, 95–35% B. The flow rate was 0.3 ml/min. The injection volume was 3 μL. […] The injection volume was 5 µL. The mass spectrometer was operated in multiple reactions monitoring for data acquisition. The multiple reaction monitoring (MRM) transitions, fragmentor, and collision energy for 7,9-diGS- RTS, RTS, and pyrrole-protein adducts are listed in Supplementary Table S1.
Data are expressed as mean ± SD. The Student’s t test was used for the comparison between two groups. The one-way ANOVA followed with a post hoc Bonferroni’s multiple comparison test was used for the comparison among multiple groups. Toxicokinetic parameters were calculated by noncompartmental methods using WinNonlin version 4.0 (Pharsight, Mountain View, CA, United States). The enzyme kinetic parameters were estimated from the best fit line using least-squares linear regression of the inverse substrate concentration versus the inverse velocity (Lineweaver-Burk plots), and the mean values were used to calculate the Km and Vmax. The inhibition constant (K i ) value of GA was determined by the secondary Lineweaver-Burk plots. The statistical significance was set as ^* p < 0.05, ^** p < 0.01 or ^*** p < 0.001.

[3] = substance alone (EX/GA single and multiple administrations; RTS single dose), 48 h

With retrorsine [RTS, reference compound] the “hepatic GSH level increase” value (RTS-induced liver injury; 48 h after RTS dosing, vs vehicle) was 2.82 fold, the “hepatic MDA level compared with vehicle” value (RTS-induced liver injury; [3]) was “elevated significantly” and the “serum ALT level compared with vehicle” value (RTS-induced liver injury; [3]) was “elevated significantly”. For the same substance, the Apoptotic bodies (RTS-induced liver damage; EX, GA or RTS alone) was 1, the “Central vein endothelial damage” value (RTS-induced liver damage; EX, GA or RTS alone) was 2-3 and the Coagulative necrosis (RTS-induced liver damage; EX, GA or RTS alone) was 2. The “Overall (sum of the scores from all individual parameters)” value (RTS-induced liver damage; EX, GA or RTS alone) was 11-14, the Sinusoid fibrosis (RTS-induced liver damage; EX, GA or RTS alone) was 0 and the Sinusoidal dilation (RTS-induced liver damage; EX, GA or RTS alone) was 2-3. The Sinusoidal hemorrhage (RTS-induced liver damage; EX, GA or RTS alone) was 2, the Subendothelial fibrosis (RTS-induced liver damage; EX, GA or RTS alone) was 0 and the Subendothelial hemorrhage (RTS-induced liver damage; EX, GA or RTS alone) was 2-3. The “histopathological examination of liver” value (RTS-induced liver damage; substance alone) was “severe hepatotoxicity”, the “sinusoids around central veins (RECA-1 immunofluorescence)” value [1] was “markedly damaged” and the “AUC0→1440 of RTS in plasma” value [2] was 234.49 ± 34.07 µg·min/mL. For the same substance, the “Cl/F of RTS” value [2] was 28.18 ± 0.92 mL/min, the “Cmax of RTS in plasma” value [2] was 3188.07 ± 144.65 ng/mL and the “T1/2 of RTS” value [2] was 1.6707 ± 0.3275 h. The “Tmax of RTS in plasma” value [2] was 0.3333 ± 0 h and the “VZ/F of RTS” value [2] was 4058.24 ± 703.60 mL.
